# Test results published in PubChem BioAssay AID588352 (The Scripps Research Institute Molecular Screening Center, 2011).
# Chains of the proteins cited; added tags and fusions are not shown.
# UniProt Q9Y6Q9, whole entry, looked up: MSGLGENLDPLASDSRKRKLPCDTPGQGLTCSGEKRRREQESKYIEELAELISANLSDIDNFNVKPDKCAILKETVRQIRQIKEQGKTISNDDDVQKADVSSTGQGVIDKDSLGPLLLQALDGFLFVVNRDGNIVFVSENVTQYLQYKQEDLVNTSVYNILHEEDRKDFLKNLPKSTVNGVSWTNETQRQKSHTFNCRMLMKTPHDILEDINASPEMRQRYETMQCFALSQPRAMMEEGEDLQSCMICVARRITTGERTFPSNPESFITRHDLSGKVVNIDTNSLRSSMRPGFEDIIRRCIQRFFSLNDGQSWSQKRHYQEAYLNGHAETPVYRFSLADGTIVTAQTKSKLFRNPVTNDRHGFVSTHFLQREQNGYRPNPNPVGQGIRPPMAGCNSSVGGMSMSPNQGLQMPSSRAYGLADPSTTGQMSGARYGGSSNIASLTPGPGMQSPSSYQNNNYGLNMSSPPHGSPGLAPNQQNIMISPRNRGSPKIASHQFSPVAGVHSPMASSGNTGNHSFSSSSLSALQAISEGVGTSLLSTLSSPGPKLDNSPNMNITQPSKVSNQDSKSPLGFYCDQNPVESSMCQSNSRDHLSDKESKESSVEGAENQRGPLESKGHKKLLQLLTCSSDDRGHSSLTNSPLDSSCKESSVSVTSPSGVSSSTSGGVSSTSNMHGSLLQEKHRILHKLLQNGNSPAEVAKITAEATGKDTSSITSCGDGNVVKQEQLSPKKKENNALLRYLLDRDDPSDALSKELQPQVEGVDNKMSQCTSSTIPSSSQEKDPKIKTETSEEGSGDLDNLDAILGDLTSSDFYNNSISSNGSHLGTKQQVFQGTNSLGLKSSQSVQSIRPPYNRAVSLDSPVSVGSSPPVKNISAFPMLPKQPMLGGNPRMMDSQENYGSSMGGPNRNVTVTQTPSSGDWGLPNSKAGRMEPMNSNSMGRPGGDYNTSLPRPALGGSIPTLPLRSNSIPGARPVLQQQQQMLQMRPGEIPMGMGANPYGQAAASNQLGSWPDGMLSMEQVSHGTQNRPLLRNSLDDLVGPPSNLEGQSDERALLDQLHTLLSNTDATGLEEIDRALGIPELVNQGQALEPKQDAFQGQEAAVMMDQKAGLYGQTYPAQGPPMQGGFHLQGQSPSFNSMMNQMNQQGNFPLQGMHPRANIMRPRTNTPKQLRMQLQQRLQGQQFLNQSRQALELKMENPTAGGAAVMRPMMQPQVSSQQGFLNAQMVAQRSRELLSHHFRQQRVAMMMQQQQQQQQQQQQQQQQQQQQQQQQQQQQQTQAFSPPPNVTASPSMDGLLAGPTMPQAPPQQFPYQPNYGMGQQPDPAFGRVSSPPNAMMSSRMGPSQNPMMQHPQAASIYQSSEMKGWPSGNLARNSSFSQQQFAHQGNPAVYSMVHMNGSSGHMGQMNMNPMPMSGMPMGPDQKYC
# The list shows a part of the results, in another mix than the full data. The source made the active and inactive calls.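 The calls were made as follows: active = inhibition above a per-campaign cutoff, the mean of all compounds plus 3 SD (cut at about 60% in these data); inactive = the rest.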
# Biological target: Nuclear receptor coactivator 3 (Homo sapiens) (UniProt Q9Y6Q9)
# Assay: SRC3 coactivator transcriptional activity inhibitors, primary screen, cell-based, luminescence (AID 588352);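 also: 0% = DMSO-treated cells and 100% = gossypol-treated cells at 36 µM; higher means less SRC3-driven luciferase light from the GAL4 reporter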
# Settings: HEK293 GAL4-SRC3 luciferase reporter, at 3.6 µM, stronger effect = higher value
row,Structure (SMILES),inhibition
1,O=[As](O)(c1cccs1)c1cccs1,inactive: -12.6%
2,Cc1ccc(OCC(=O)OC2CN3CCC2CC3)cc1 (centres undefined),inactive: -11.2%
3,Nc1cccc([As](=O)(O)c2ccccc2)c1,inactive: -0.4%
4,Cc1nn(-c2ccccc2)c2c1P(=O)(N1CCOCC1)N(C)C(c1ccccc1)=N2 (centres undefined),inactive: 16%
5,CC1CCC(C(C)C)C(OP(=O)(Nc2ccccn2)c2ccccc2)C1 (centres undefined),inactive: 12.1%
6,Cc1ccc(C(=O)OC2CN3CCC2CC3)cc1 (centres undefined),inactive: 19.4%
7,O=C(/C=C/c1ccccc1)OC1CN2CCC1CC2 (centres undefined),inactive: -0.69%
8,CCCC1OP(=O)(Nc2ccccc2)OCC1CC (centres undefined),inactive: -11%
9,CN(C)C1(CNC(=O)c2ccc(S(C)(=O)=O)cc2)CCCCC1,inactive: -2.69%
10,NC(=O)Nc1ccc([As](=O)(O)O)cc1,inactive: -15.2%
11,CN(C)C(=O)c1cc([N+](=O)[O-])cc2c1-c1c(cc([N+](=O)[O-])cc1[N+](=O)[O-])C2=O,inactive: 15.6%
12,O=[N+]([O-])c1ccc2c(c1)nnn2O,inactive: 5.91%
13,CN(C(=O)Cc1ccc(Cl)c(Cl)c1)[C@H]1CC[C@@]2(CCCO2)C[C@@H]1N1CCCC1,inactive: -5.88%
14,N#CCCN(C(=O)COC(=O)C(O)(c1ccccc1)c1ccccc1)c1ccc(F)cc1,inactive: 11.9%
15,CCOP1(=S)c2c(C)nn(CCC#N)c2N=C(c2ccc(F)cc2)N1C (centres undefined),inactive: 13.8%
16,CN(C(=O)Cc1ccccc1)[C@@H]1CC[C@]2(CCCO2)C[C@H]1N1CCCC1,inactive: -10%
17,CS(=O)(=O)c1cc([N+](=O)[O-])c2no[n+]([O-])c2c1,inactive: -12.4%
18,CCOP1(=S)c2c(C)nn(CCC#N)c2N=C(c2ccccc2F)N1C (centres undefined),inactive: -7.73%
19,O=P(Nc1nccs1)(c1ccccc1)c1nc2ccccc2s1 (centres undefined),inactive: -10.2%
20,O=P(Nc1nccs1)(Oc1ccccc1)Oc1ccccc1,inactive: 14.1%
21,Nc1ccccc1[As](=O)(O)c1ccccc1,inactive: 10.5%
22,O=C(O)COc1ccc([As](=O)(O)O)cc1[N+](=O)[O-],inactive: 9.54%
23,CCCOP(=S)(Nc1nc(N)cc(=O)[nH]1)OCCC,inactive: 6.88%
24,Nc1cccc2c([As](=O)(O)O)cccc12,inactive: -18%
25,Cc1ccc(NCCc2c([N+](=O)[O-])cc([N+](=O)[O-])cc2[N+](=O)[O-])cc1,inactive: 2.24%

row,Structure (SMILES),inhibition
1,COc1cc(C2NCCC3(OCCO3)C2(C)C)cc(OC)c1OC (centres undefined),inactive: 16.5%
2,CCOP(=O)(Nc1cccc2ccccc12)OCC,inactive: -54.1%
3,COc1cc(C(=O)NCC2(N3CCOCC3)CCCCC2)cc(Cl)c1OC(C)C,inactive: 10.1%
4,O=[As](O)(O)c1cccnc1,inactive: 12.9%
5,CS(=O)(=O)c1ccc(Cl)c(NC(=O)COC(=O)C(O)(c2ccccc2)c2ccccc2)c1,inactive: -21.5%
6,O=C(OC1CN2CCC1CC2)c1ccc(Cl)cc1 (centres undefined),inactive: 15.5%
7,O=[As](O)(c1cccc(O)c1)c1cccc(O)c1,inactive: 4.17%
8,Cc1cccc(OCC(=O)OC2CN3CCC2CC3)c1 (centres undefined),inactive: 17.2%
9,COc1ccc(N/C(=N/P(=O)(N2CCOCC2)N2CCOCC2)N2CCOCC2)cc1,inactive: 2.76%
10,O=[N+]([O-])c1cc(Oc2ccc([N+](=O)[O-])cc2C(F)(F)F)cc([N+](=O)[O-])c1,inactive: 6.34%
11,O=C(OC1CN2CCC1CC2)C12CC3CC(CC(C3)C1)C2 (centres undefined),inactive: 12.1%
12,Cc1cc(=O)[nH]c(N[N+](=O)[O-])n1,inactive: 8.51%
13,Cc1c2c(nc3ccccc13)SC(C(Cl)Cl)C2 (centres undefined),inactive: -0.58%
14,COc1ccc2nc(NP(=O)(c3ccccc3)c3ccccc3)sc2c1,inactive: 12.8%
15,COc1cc(I)ccc1[As](=O)(O)O,inactive: 4.59%
16,O=P1(N(CCCl)CCCl)OCCCN1CCCl (centres undefined),inactive: -8.95%
17,O=P1(N(CCCl)CCCl)Nc2ccccc2N1,inactive: -124%
18,CC(C)c1ccc(OP(=O)(Nc2ccccn2)Oc2ccccc2F)cc1 (centres undefined),inactive: 19.8%
19,COC(=O)C1(C)COP(=O)(N2CCCCCC2)OC1 (centres undefined),inactive: -0.97%
20,ClCCSc1nnc(-c2cccnc2)o1,inactive: -5%
21,O=C(OC1CN2CCC1CC2)c1cccc2[nH]cnc12 (centres undefined),inactive: -11.8%
22,CCN(CC)C(=S)SC(NC=O)C(Cl)(Cl)Cl (centres undefined),inactive: 13.7%
23,CC(C)NC(=O)NP(=O)(Oc1ccccc1)Oc1ccccc1,inactive: -0.21%
24,O=[N+]([O-])c1cc([N+](=O)[O-])c(-c2ccn[nH]2)s1,inactive: 7.56%
25,O=[As](O)(c1ccc(O)cc1)c1ccccc1O,inactive: 11%

row,Structure (SMILES),inhibition
1,C[As](=O)(O)c1cccc(C(=O)O)c1,inactive: 3.92%
2,COc1cc(C(=O)NCC2(N3CCOCC3)CCCCC2)ccc1OCC(C)C,inactive: 7.69%
3,O=[N+]([O-])c1ccc(-c2cc([N+](=O)[O-])c(O)c([N+](=O)[O-])c2)cc1,inactive: 3.05%
4,Cc1ccc2nc3c(c(C)c2c1)CC(C(Cl)Cl)S3 (centres undefined),inactive: -29.7%
5,Cc1ccc(OP(=O)(Nc2ccc([N+](=O)[O-])cn2)Oc2ccc(C)cc2)cc1,inactive: -5.11%
6,CCOC(=O)Nc1cccc([As](=O)(O)O)c1,inactive: -5.12%
7,O=[N+]([O-])c1ccc(Nc2ccc(Oc3ccc([N+](=O)[O-])cc3[N+](=O)[O-])cc2)c([N+](=O)[O-])c1,inactive: 1.07%
8,O=P(Nc1ccccn1)(c1cccc2ccccc12)c1cccc2ccccc12,inactive: 13.4%
9,Cc1cc(SC(NC=O)C(Cl)(Cl)Cl)ncn1 (centres undefined),inactive: 1.33%
10,CC1CCNP(=O)(N(CCCl)CCCl)O1 (centres undefined),inactive: -0.75%
11,CCOC(=O)Nc1ccc([As](=O)(O)O)c(O)c1,inactive: 5.62%
12,O=C(O)C(O)c1ccc(N(CCCl)CCCl)cc1 (centres undefined),inactive: -18.6%
13,CCCCOc1ccc(C(=O)NCC2(N3CCCCC3)CCCCC2)cc1OC,inactive: -14.5%
14,Cc1cc(SC(NC(=O)c2ccccc2)C(Cl)(Cl)Cl)nc(C(C)C)n1 (centres undefined),inactive: 12.7%
15,COP(=O)(OC)N1CC1c1ccccc1 (centres undefined),inactive: -0.47%
16,CCOC(=O)c1ccc(NC(=O)C(C)(CCl)SC)cc1 (centres undefined),inactive: -38.4%
17,O=C(OC1CN2CCC1CC2)c1cccc([N+](=O)[O-])c1 (centres undefined),inactive: 9.84%
18,CSc1ccc(Nc2c([N+](=O)[O-])cc([N+](=O)[O-])cc2[N+](=O)[O-])cc1,inactive: -21%
19,CCC(C)N(CC(C)C)C(=S)SC(NC(C)=O)C(Cl)(Cl)Cl (centres undefined),inactive: -9.4%
20,COP1(=S)c2c(C)nn(CCC#N)c2N=C(c2ccc(F)cc2)N1C (centres undefined),inactive: -4.11%
21,COC(=O)C1(C)COP(=O)(N2CCCC2)OC1 (centres undefined),inactive: 13.2%
22,O=C(COc1ccccc1)OC1CN2CCC1CC2 (centres undefined),inactive: -13.4%
23,O=C(Nc1ccncc1[N+](=O)[O-])c1ccc([N+](=O)[O-])cc1[N+](=O)[O-],inactive: 22.4%
24,O=C(O)C(=O)c1ccc(N(CCCl)CCCl)cc1,inactive: 5.03%
